Amino acid sequences for entries named in this document (tags omitted).
UniProt P33535, whole entry: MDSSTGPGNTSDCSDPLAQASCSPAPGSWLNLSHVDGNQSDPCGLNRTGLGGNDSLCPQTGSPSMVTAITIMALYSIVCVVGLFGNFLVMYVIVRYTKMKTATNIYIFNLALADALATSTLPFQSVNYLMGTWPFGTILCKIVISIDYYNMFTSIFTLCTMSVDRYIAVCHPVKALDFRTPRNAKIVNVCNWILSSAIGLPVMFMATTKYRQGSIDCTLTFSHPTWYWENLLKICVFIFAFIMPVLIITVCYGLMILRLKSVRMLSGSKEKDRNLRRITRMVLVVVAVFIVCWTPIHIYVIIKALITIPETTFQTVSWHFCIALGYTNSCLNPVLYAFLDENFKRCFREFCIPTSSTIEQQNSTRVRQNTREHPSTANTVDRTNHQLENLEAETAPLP

In publication PMC6148296 (Scientific Reports, 2018):

Tests used:
[1] = biological target: T1, rat μ-opioid receptor (Rattus norvegicus, UniProt P33535); experiment: Receptor binding assay, [3H]DAMGO competition; conditions: CHO cell membranes, 2.0 nM [3H]DAMGO; read-out: µ binding affinity Ki
T1 construct: expressed in transfected cells; membranes prepared

[2] = biological target: T1, rat μ-opioid receptor; experiment: [35S]GTPγS binding assay, MOR; assay type: biochemical; conditions: 0.1 nM [35S]GTPγS; read-out: Agonist activity MOR EC50

`C[C@@H](NC(=O)[C@@H](N)Cc1ccc(O)cc1)C(=O)NCC(=O)N(C)[C@@H](Cc1ccccc1)C(=O)NCCO` [DAMGO, [D-Ala2,N-Me-Phe4,Gly5-ol]-enkephalin] gave a Ki [1] of 2.3 ± 0.02 nM and an EC50 [2] of 16.1 ± 0.3 nM.
